From patent US20170067882A1

Sequences of proteins named here, by UniProt entry; tags and fusion partners are left off. Residues count along the entry.
UniProt Q13477, 19-317: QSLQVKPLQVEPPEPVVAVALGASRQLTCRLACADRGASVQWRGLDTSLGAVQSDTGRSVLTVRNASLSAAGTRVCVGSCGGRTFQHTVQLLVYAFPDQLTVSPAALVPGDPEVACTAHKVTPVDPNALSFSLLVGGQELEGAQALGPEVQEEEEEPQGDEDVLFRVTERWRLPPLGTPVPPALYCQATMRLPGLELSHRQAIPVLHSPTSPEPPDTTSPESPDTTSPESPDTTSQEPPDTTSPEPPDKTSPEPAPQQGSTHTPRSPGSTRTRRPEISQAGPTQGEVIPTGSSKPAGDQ
UniProt Q13477, 19-382: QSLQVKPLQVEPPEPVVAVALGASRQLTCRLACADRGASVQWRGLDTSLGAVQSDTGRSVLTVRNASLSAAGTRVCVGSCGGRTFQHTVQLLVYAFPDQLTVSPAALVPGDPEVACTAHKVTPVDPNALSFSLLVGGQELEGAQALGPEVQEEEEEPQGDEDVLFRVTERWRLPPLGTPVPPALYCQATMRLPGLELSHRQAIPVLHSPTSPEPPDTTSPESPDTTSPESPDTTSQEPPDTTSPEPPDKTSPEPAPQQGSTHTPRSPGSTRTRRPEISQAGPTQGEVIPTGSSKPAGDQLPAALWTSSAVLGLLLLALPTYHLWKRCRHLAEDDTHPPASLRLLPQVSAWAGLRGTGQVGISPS

Columns and labels:
[1] = molecular target: endogenous, shed, soluble MAdCAM in normal human serum (human) (UniProt Q13477); assay: BSI, 10% normal human serum, soluble target 100 pM
[2] = molecular target: endogenous, shed, soluble MAdCAM in normal human serum (human) (UniProt Q13477); assay: BSI, 25% normal human serum, soluble target 250 pM
[3] = molecular target: endogenous, shed, soluble MAdCAM in normal human serum (human) (UniProt Q13477); assay: BSI, 35% normal human serum, soluble target 350 pM
[4] = molecular target: endogenous, shed, soluble MAdCAM in normal human serum (human) (UniProt Q13477); assay: BSI, 50% normal human serum, soluble target 500 pM
[5] = molecular target: endogenous membrane-bound MAdCAM in human IBD colon tissue vesicles (human) (UniProt Q13477); assay: BSI, human colon vesicles (VRH) in PBS against soluble hMAdCAM
[6] = molecular target: endogenous, shed, soluble MAdCAM in normal human serum (human) (UniProt Q13477); assay: BSI, free solution, 0.1% normal human serum pool; target at 1 pM
[7] = molecular target: full length hMAdCAM stably expressed in CHO cells (vesicle preparation) (human) (UniProt Q13477); assay: BSI, CHO-MAdCAM vesicles in PBS against soluble MAdCAM in 0.1% serum
[8] = molecular target: Soluble human MAdCAM-IgG1 Fc fusion protein (human) (UniProt Q13477); assay: BSI, free solution, both partners untethered in buffer; target at 10 pM
[9] = molecular target: endogenous membrane-bound MAdCAM in human IBD colon tissue vesicles (human) (UniProt Q13477); assay: BSI, human IBD colon vesicle preparation (VRH) in PBS; anti-IL6 mAb as reference
[10] = molecular target: full length hMAdCAM stably expressed in CHO cells (vesicle preparation) (human) (UniProt Q13477); assay: BSI, CHO-rhMAdCAM vesicles in PBS; target at 34 pM; wild type vesicles as reference
[11] = molecular target: endogenous, shed, soluble MAdCAM in normal human serum (human) (UniProt Q13477); assay: linear extrapolation of the BSI apparent Kd values against serum MAdCAM concentration
[12] = molecular target: endogenous membrane-bound MAdCAM in human IBD colon tissue vesicles (human) (UniProt Q13477); assay: BSI, human colon tissue vesicles bathed in 25% interstitial-like homogenate (holds 11 pM soluble MAdCAM); ensemble Kd
[13] = molecular target: endogenous membrane-bound MAdCAM in human IBD colon tissue vesicles (human) (UniProt Q13477); assay: BSI, human colon tissue vesicles bathed in 87.5% interstitial-like homogenate (holds 39 pM soluble MAdCAM); ensemble Kd

For “PF-00547659, a fully human anti-MAdCAM IgG2 monoclonal antibody”, which Apparent Kd [1] is on record?
The Apparent Kd was 30 pM.

What about the Apparent Kd [2] of the same substance?
Its Apparent Kd is 110 pM.

And the Apparent Kd [3]?
The Apparent Kd was 174 pM.

What about the Apparent Kd [4] of the same substance?
The Apparent Kd was 285 pM.

What about the fold decrease in binding affinity compared to soluble hMAdCAM [5] of the same substance?
Its fold decrease in binding affinity compared to soluble hMAdCAM is 20 fold.

And the Kd [6]?
Its Kd is 7.5 pM.

What about the fold change of Kd against the true Kd measured in 0.1% serum [7] of the same substance?
Its fold change of Kd against the true Kd measured in 0.1% serum is 20 fold.

And the Kd [8]?
The Kd was 7.1 pM.

And the Kd [9]?
The Kd was 0.155 nM.

What about the Kd [10] of the same substance?
Its Kd is 0.134 nM.

And the estimated apparent Kd extrapolated to 100% serum [11]?
Its estimated apparent Kd extrapolated to 100% serum is 598 pM.

And the Kd [12]?
Its Kd is 0.262 nM.

What about the Kd [13] of the same substance?
The Kd was 0.36 nM.
